{"source": "patent US12448436B2", "about": "“Antibody specifically binding to GRP94 or antigen-binding fragment thereof, and uses thereof” (KOOKMIN UNIVERSITY INDUSTRY ACADEMY COOPERATION FOUNDATION, priority 2020, dated 2025)", "key": {"HCT8 cells": {"test_system": "HCT8 cells", "experiment": "In vitro CRC proliferation assay, HCT8", "type": "cell-based, human", "settings": "20 μg/mL, 72 hours, MOCK 4.8±0.25", "description": "(§1) The four anti-GRP94 human IgG antibodies B5, E5, 2H5, and 3G7 of the present disclosure were examined in vitro for effect on CRC cell proliferation. For use in the efficacy assay, the four cetuximab-resistant colorectal cancer cell lines HCT116, HT29, LoVo, and HCT-8 were each grown in a culture medium (HCT116, HCT8, HT29, and LoVo: RPMI1640+10% FBS+1% Penicillin-Streptomycin) at 37° C. in T-75 flask in a 5% CO2 incubator until reaching about 80-90% confluency. The culture medium was removed by suction and the cells were washed with 10 mL of phosphate buffered saline (hereinafter PBS). After removal of PBS by suction, the cells were treated 2 mL of TrypLE Express Enzyme at 37° C. for 3 minutes in a 5% CO2 incubator. Thereafter, the cells were added with 8 mL of the culture medium, transferred to 15-mL tube, and centrifuged at 500×g for 5 minutes. […] From a small portion of the cell suspension, the cells were counted using the Countess II Automated Cell Counter. […] From the collected images, cell growth was monitored using the IncuCyte FLR live content imaging system (Essen Bioscience, Ann Arbor, MI, USA). The results are shown in FIGS. 17 to 20. • 1) The four GRP94 human antibodies (B5, E5, 2H5, and 3G7) for HCT8 cells were measured to have the following cell indices at the end point: MOCK: 4.8±0.25, B5: 3.15±0.21, E5: 3.33±0.31, 2H5: 3.98±0.09, 3G7: 3.40±0.16, and CTX: 4.84±0.28."}, "HT29 cells": {"test_system": "HT29 cells", "experiment": "In vitro CRC proliferation assay, HT29", "type": "cell-based, human", "settings": "20 μg/mL, 72 hours, MOCK 2.94±0.04", "description": "as §1"}, "LoVo cells": {"test_system": "LoVo cells", "experiment": "In vitro CRC proliferation assay, LoVo", "type": "cell-based, human", "settings": "20 μg/mL, 72 hours, MOCK 3.76±0.19", "description": "as §1"}, "[1]": {"test_system": "HCT116 subcutaneous xenograft", "experiment": "Tumor growth inhibition by sole administration, colorectal xenograft model", "type": "in vivo, Balb/c nude mice", "settings": "10 mg/kg intravenous twice per week for six weeks; controls PBS and hIgG", "description": "For use in assaying in-vivo efficacy of the four antibodies of the present disclosure, a subcutaneous xenograft mouse model was established by injecting the metastatic colorectal cancer cell line HCT116 (5×10^6 cells) into 6-week-old Balb/c nude mice. When the tumor size reached about 50-100 mm^3, PBS (negative control), hIgG (negative control), cetuximab, and the four antibodies (B5, E5, 2H5, and 3G7) were each intravenously injected at a dose of 10 mg/kg twice per week for six weeks while monitoring the efficacies. The results are depicted in FIGS. 26a to 26d."}, "[2]": {"experiment": "In vivo hepatotoxicity and nephrotoxicity in colorectal xenograft model", "parameters": "species or system Balb/c nude mice", "settings": "xenograft mice weighed every week, six weeks; 10 mg/kg", "description": "To assay the four antibodies of the present disclosure for in vivo hepatotoxicity and nephrotoxicity, the same xenograft model as in Example 11 weighed every week. After six weeks of the experiment, GOT (glutamic oxaloacetic transaminase), GPT (glutamate pyruvate transaminase), and TBIL (total bilirubin) were measured for hepatotoxicity assay while BUN (blood urea nitrogen) and CRE (creatinine) were measured for nephrotoxicity assay. The results are depicted in FIGS. 27a and 27b."}, "[3]": {"test_system": "colorectal cancer patients", "settings": "other patients show cetuximab resistance; cited from earlier work"}}}
{"substance": "cetuximab [reference compound]", "values": [{"measurement": "cell index at the end point", "setting": "HCT8 cells", "value": "4.84±0.28"}, {"measurement": "cell index at the end point", "setting": "HT29 cells", "value": "3.27±0.12"}, {"measurement": "cell index at the end point", "setting": "LoVo cells", "value": "3.43±0.14"}, {"measurement": "inhibitory activity against tumor growth compared to the controls", "setting": "[1]", "value": "not significantly different"}, {"measurement": "changes in body weight", "setting": "[2]", "value": "no significant changes"}, {"measurement": "share of colorectal cancer patients in whom effective", "setting": "[3]", "value": "10-20%"}]}
